## Antibody variant affinities, Ab-14 heavy chain, assay 1

Source: Engelhart et al. 2022 (doi:10.1038/s41597-022-01779-4), MIT Lincoln Laboratory and A-Alpha Bio; data file from the FLAb repository.

All variants were tested on one target, the spike HR2 peptide PDVDLGDISGINAS (SARS-CoV-2).

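The starting antibody came from a phage panning campaign against this peptide. Library AAYL49 holds single substitutions and randomly drawn double and triple substitutions in the CDRs. AlphaSeq pools MATa yeast showing the antibodies with MATalpha yeast showing the peptide. Mating (16 h, 30 °C) was followed by selection of diploids and sequencing of their barcodes. Read counts were normalised to the haploid input and turned into Kd by a linear fit to BCL2-family pairs of known affinity, for each replicate. The assay was run in three technical replicates.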

The variants keep the light chain, the linker and the frameworks of Ab-14 (scFv order VH, the linker GGGGSGGGGSGGGGS, VL).
VH: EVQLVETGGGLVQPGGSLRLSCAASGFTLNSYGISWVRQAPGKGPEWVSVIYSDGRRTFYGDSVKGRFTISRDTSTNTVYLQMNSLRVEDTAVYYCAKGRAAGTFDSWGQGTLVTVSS
VL: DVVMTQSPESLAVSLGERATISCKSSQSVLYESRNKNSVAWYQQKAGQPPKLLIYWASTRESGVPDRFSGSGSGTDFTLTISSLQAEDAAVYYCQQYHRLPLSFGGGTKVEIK

The parent's heavy chain CDRs are GFTLNSYGIS, VIYSDGRRTFYGDSVK, GRAAGTFDS; each variant's own CDRs replace them letter for letter. This list gathers variants with a substitution at R100 (VH, numbered from residue 1). Values are log10 of the apparent Kd in nM; lower means stronger binding. A mean of the replicates is given; it leaves out those without a signal. An entry "nd" has no value in the source: the pair was not observed among the diploids in that replicate. This suggests poor binding but is not conclusive. Empty control strains, which show no peptide, gave a signal in 15% of pairings with library AAYL49; the median was 4.06 and 95% of these signals were weaker than 2.83. No background was subtracted. Parent in this assay: reference entry 0.65, copy in this library 4.11 (one replicate of three).

| CDR-H1 | CDR-H2 | CDR-H3 | log10 Kd (nM) by replicate | mean, log10 nM |
|---|---|---|---|---|
| GFTLNSYGIS | VIYSDGRRTFYGDSVR | LKAAGTFDS | nd nd nd | nd |
| GFTLNSYGIS | VRYSDGRRTFKGDSVK | GVAAGTFDS | nd nd nd | nd |
| GFTLNRAGIS | VIYSDGRRTFYGDSVK | GTAAGTFDS | 1.89 1.98 2.08 | 1.98 |
| GFTINSYGIS | VIYSDGRRTFYTDSVK | GDAAGTFDS | 0.32 0.55 0.47 | 0.45 |
| GFTLNSYYIS | FIYSDGRRTFYGDSVK | GAAAGTFDS | nd nd nd | nd |
| GFTLNSYGIQ | VIYSDGRRTFYGDSRK | GLAAGTFDS | nd nd nd | nd |
| GFTLNSYGVS | VIYSDGRRTFYGDSVK | YPAAGTFDS | 2.34 2.55 2.44 | 2.44 |
| GFTLNSYGIS | VIYSDGRQTFYGDSVK | GYAAGTFWS | nd nd nd | nd |
| GFTLNSYGIS | VRYSDGRRTFYGDSVK | GKAAGTFDS | nd 2.84 3.32 | 3.08 |
| GFTLNSYGIS | VIYSDGRRTFYVDSVK | GTAAGTFDS | 0.27 0.32 0.01 | 0.20 |
| GFTLNSYGIG | VIYSDGRRWFYGDSVK | GKAAGTFDS | nd nd nd | nd |
| GFTLNSYGIS | VIYWDGRRTYYGDSVK | GWAAGTFDS | nd 3.28 2.91 | 3.10 |
| GFTLNSYGIS | VIYSDGRRTFYGDPVK | GQAACTFDS | nd nd nd | nd |
| GFTLNSYGIY | VIYSDGRRTFYGDSVK | GNAAGTFDS | nd nd 5.24 | 5.24 |
| KFTLNSYGSS | VIYSDGRRTFYGDSVK | GKAAGTFDS | 0.52 0.44 0.38 | 0.45 |
| GFTLNSYGIS | VIYDDGRRTFYGRSVK | GFAAGTFDS | nd 2.38 nd | 2.38 |
| GFCLNSYGIS | VIYSDGRRTFYGDSVK | NIAAGTFDS | 1.47 1.26 1.74 | 1.49 |
| MFTLNSYGIS | VIYSDGRRTFYGDSVK | GDAAGTFDS | 1.82 1.88 1.75 | 1.82 |
| GFTLNSYGIS | VIYSYGRRTFYGMSVK | GNAAGTFDS | nd nd nd | nd |
| GFTLNSYGIS | VIISDGRRTFYGDSVK | GQAAGTFDS | nd nd nd | nd |
| GFTLNSYGIS | VIYSDGRWTFPGDSVK | GNAAGTFDS | nd 3.40 nd | 3.40 |
| GFTLNSYGIS | VIYSLGRCTFYGDSVK | GSAAGTFDS | nd nd nd | nd |
| GCTLNSYGIS | VIASDGRRTFYGDSVK | GSAAGTFDS | 2.14 1.97 2.85 | 2.32 |
| GFTLNSYGIS | VIYSDGRRTFYGDSES | GPAAGTFDS | nd 4.59 nd | 4.59 |
| GFTLNSYGIS | VIYSDGRDTFYGDSVK | GSAAGTFDS | nd nd nd | nd |
| GLTLNSYGIS | VIYSDGRRTFYKDSVK | GMAAGTFDS | nd nd nd | nd |
| GFTLNSYGIS | VIYSDGRRTFYGDSVK | GFAIKTFDS | nd nd nd | nd |
| GNTLNSYGIS | VIYSDGRRTFYGDSVK | GVAAGTFDS | 2.10 2.16 1.84 | 2.03 |
| GFTLNSYGIS | VIYGDGRMTFYGDSVK | GPAAGTFDS | 5.20 nd nd | 5.20 |
| GFTLNSYGIS | PIYSDGRRTFYGDSVR | GCAAGTFDS | nd 5.28 nd | 5.28 |
| GFTLNSYGIL | VIYSDGRRTIYGDSVK | GCAAGTFDS | nd 3.14 nd | 3.14 |
| GFTLNSYGIS | VIYSDGRRTFYGDSVK | GINAGDFDS | 1.04 1.03 1.11 | 1.06 |
| GITLNSYGIV | VIYSDGRRTFYGDSVK | GLAAGTFDS | nd nd nd | nd |
| GFTLNSYGIS | VIYSDGRRKFYGDSVK | GYAAGTFDS | 3.64 2.71 4.46 | 3.60 |
| GFTLNSYGIS | VIYSDGRRKFYGDSVK | GHAAGTFDS | 0.67 0.83 0.67 | 0.72 |
| GFTLNSYGIS | VIYSDRRRTFYGASVK | GDAAGTFDS | nd nd nd | nd |
| GFTLNSYGVS | VIYSDGRRTFYGDSVK | GTAAGTFDS | 0.77 0.83 0.92 | 0.84 |
| GFTLTSYGIS | VIYSDGRRTFYGDSVK | GAAAWTFDS | 5.54 4.62 nd | 5.08 |
| HFTLNSYGIS | VIYQDGRRTFYGDSVK | GIAAGTFDS | 4.66 3.72 4.24 | 4.21 |
| GFTLNSYGIT | VIYSDGRATFYGDSVK | GPAAGTFDS | nd nd nd | nd |
| CFTDNSYGIS | VIYSDGRRTFYGDSVK | GKAAGTFDS | nd nd nd | nd |
| GFTLNSYGIS | VIYSDGRRTFYGDSVK | GQAAGTFDS | 3.79 4.89 nd | 4.34 |
| GFTLNSYGIS | EIYSDGRRTFLGDSVK | GIAAGTFDS | nd nd nd | nd |
| GFTHNSYGIS | VIFSDGRRTFYGDSVK | GWAAGTFDS | 4.40 nd nd | 4.40 |
| GFTLNSYGIS | VIYSDGRRTFYGDSVK | GHALGTFDS | nd nd nd | nd |
| GFTLNSYGIS | VIYSDGRRTFYGDSVK | GQAAGTDDC | 4.81 4.79 nd | 4.80 |
| GFTLNDYGIS | VIYSDGRRTMYGDSVK | GSAAGTFDS | -0.01 0.26 0.09 | 0.12 |
| GFTLNSYGIS | VIYSDGRRTFYGDSVK | GFAAGTFDS | 1.35 1.22 1.60 | 1.39 |
| GFTLNSYGIS | VIYSDGRRYFYGDSVK | LKAAGTFDS | nd nd nd | nd |
| GFFLNSYGWS | VIYSDGRRTFYGDSVK | GMAAGTFDS | nd 2.73 nd | 2.73 |
| GFTLNSYGIS | VIYSDGRRTFYGDSEV | GPAAGTFDS | nd nd nd | nd |

Extract of 7 entries:

CDR-H1	CDR-H2	CDR-H3	log10 Kd (nM) by replicate	mean, log10 nM
GFTLNSYGIS	EIYSDGRRTFLGDSVK	GIAAGTFDS	nd nd nd	nd
GFTLNSYGIS	VIISDGRRTFYGDSVK	GQAAGTFDS	nd nd nd	nd
GFTLNSYGIS	PIYSDGRRTFYGDSVR	GCAAGTFDS	nd 5.28 nd	5.28
GFTLTSYGIS	VIYSDGRRTFYGDSVK	GAAAWTFDS	5.54 4.62 nd	5.08
GFTLNSYGIG	VIYSDGRRWFYGDSVK	GKAAGTFDS	nd nd nd	nd
GFTLNSYGIS	VIYSDGRRTFYGDPVK	GQAACTFDS	nd nd nd	nd
GFTLNSYGIS	VIYSLGRCTFYGDSVK	GSAAGTFDS	nd nd nd	nd